Results: the NIST ThermoML archive (doi:10.1016/j.jct.2017.03.004)

Test: activity coefficient (dimensionless); of the first substance listed, at infinite dilution; xn = mol fraction of the nth substance listed
Settings: 101.33 kPa, Liquid, Chromatography, x1 = 0

CCCCOCCCC [dibutyl ether] + N#C[N-]C#N.OCCC[n+]1ccccc1
Settings | activity coefficient
318.15 K | 268
328.15 K | 254
338.15 K | 244
348.15 K | 234
358.15 K | 225
368.15 K | 216
